Measurements: paper PMC9130538, “Amino acids in transmembrane helix 1 confer major functional differences between human and mouse orthologs of the polyspecific membrane transporter OCT1” (The Journal of Biological Chemistry, 2022)

How the values were obtained:
human OCT1 = target: T1, human OCT1 (Homo sapiens, UniProt O15245); assay: Cellular uptake by HEK293 cells overexpressing human OCT1 (wildtype); settings: for vmax ± SD, hOCT1: HEK293 stably transfected, 2 min uptake, 37 °C, pH 7.4, OCT1-mediated uptake
T1 sequence (O15245 1-554): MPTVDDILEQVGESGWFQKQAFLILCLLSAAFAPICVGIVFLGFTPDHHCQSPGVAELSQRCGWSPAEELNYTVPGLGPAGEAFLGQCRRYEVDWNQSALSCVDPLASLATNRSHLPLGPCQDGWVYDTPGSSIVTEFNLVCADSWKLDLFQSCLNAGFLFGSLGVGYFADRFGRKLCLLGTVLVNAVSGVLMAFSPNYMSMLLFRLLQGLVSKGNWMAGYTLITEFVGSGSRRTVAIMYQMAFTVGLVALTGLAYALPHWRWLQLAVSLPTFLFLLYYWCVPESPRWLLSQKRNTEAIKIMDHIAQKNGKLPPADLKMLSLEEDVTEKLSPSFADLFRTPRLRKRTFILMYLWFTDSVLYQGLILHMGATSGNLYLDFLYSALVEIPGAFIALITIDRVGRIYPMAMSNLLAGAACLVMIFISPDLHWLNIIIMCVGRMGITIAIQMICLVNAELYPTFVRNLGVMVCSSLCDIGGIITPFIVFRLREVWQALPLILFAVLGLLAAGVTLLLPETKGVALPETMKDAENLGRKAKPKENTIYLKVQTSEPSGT
Description: (§1) Generation and characterization of these cell lines has been described in detail before ([34], [48], [49]). Cells were cultured in Dulbecco’s Modified Eagle’s Medium supplemented with 10% fetal bovine serum, 100 U/ml penicillin, and 100 μg/ml streptomycin at 37 °C and 5% CO2 and were passaged twice a week.
(§2) At 48 h prior to the experiment, 6 × 10^5 cells were seeded per well in 12-well plates. When using transiently transfected cells, 5 × 10^5 T-REx-293 cells (Life Technologies) were seeded per well in 12-well plates 72 h prior to the experiment, and they were transfected 24 h later as described previously. Twelve-well plates were precoated with poly-D-lysine.
(§3) Cellular uptake experiments were performed at 37 °C and pH 7.4 using HBSS supplemented with 10 mM Hepes (in the following referred to as HBSS+). Cells were washed with 1 ml prewarmed (37 °C) HBSS+, and the uptake was initiated by adding 400 μl of prewarmed HBSS+ containing the substrate. Uptake was allowed for exactly 2 min and afterward stopped by adding 2 ml ice-cold HBSS+. Cells were washed twice with 2 ml ice-cold HBSS+ and lysed with 80% acetonitrile supplemented with internal standard, 0.1 N NaOH/0.1% SDS, or radioimmunoprecipitation buffer for LC–MS/MS, liquid scintillation counting, or fluorescence spectroscopy detection, respectively. Intracellular substrate concentrations were measured as described in the following and were then normalized to the amount of total protein in the samples as measured using the bicinchoninic acid assay ([51]).
For LC–MS/MS quantification of intracellular substrate concentrations, the cell lysate was centrifuged at 16,000g for 15 min, and 350 μl of supernatant was evaporated to dryness under nitrogen flow at 40 °C. The sample was reconstituted with 200 μl 0.1% formic acid, and between 2 and 30 μl were injected into the LC–MS/MS system (Table S1).
An API4000 QTRAP tandem mass spectrometer with ESI interface (AB SCIEX) was used, coupled to a Shimadzu Nexera X2 UHPLC system with LC 30AD pumps and SiL 30AC autosampler (Shimadzu).
Intracellular concentrations of radioactively labeled substrates MPP^+ and TEA^+ were quantified using liquid scintillation counting. To this end, 400 μl cell lysate was transferred into a 20 ml scintillation vial, 9 ml Aquasafe 500 Plus liquid scintillator (both Zinsser Analytics) was added, and the sample was measured in the Scintillation Counter LS6500 (Beckman Coulter).
For both analyses, SPSS Statistics, version 28 (SPSS, Inc, IBM) was used.

mouse Oct1 = target: T2, mouse Oct1 (Mus musculus, UniProt O08966); assay: Cellular uptake by HEK293 cells overexpressing mouse Oct1 (wildtype); settings: HEK293 stably transfected, 2 min uptake, 37 °C, pH 7.4, OCT1-mediated uptake
T2 sequence (O08966 1-556): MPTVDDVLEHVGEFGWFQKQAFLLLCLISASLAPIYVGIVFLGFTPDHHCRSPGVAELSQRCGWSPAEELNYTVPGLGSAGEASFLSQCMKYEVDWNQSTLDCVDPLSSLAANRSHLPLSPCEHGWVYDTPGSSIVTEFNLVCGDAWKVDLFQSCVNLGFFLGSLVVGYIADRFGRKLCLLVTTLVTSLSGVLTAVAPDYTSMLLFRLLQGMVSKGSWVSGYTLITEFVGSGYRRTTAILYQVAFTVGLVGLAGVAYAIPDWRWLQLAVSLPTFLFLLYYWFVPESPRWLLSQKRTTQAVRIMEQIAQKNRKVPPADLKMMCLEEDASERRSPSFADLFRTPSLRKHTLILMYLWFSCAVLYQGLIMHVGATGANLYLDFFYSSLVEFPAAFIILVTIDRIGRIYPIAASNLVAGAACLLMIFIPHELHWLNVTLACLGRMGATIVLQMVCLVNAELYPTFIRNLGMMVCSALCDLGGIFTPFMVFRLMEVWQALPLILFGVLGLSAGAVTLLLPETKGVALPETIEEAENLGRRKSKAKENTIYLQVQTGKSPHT
Description: as §1, §2
as §3, with “Cells were washed with 1 ml prewarmed (37 °C) HBSS+, and the uptake was initiated by adding 400 μl of prewarmed HBSS+ containing the substrate. Uptake was allowed for exactly 2 min and afterward stopped by adding 2 ml ice-cold HBSS+.” left out, “([51]). […]” for “([51]).”

mouse Oct1 Leu32Phe = target: T3, mouse Oct1 Leu32Phe (Mus musculus, UniProt O08966, L32F); assay: Uptake by HEK293 cells overexpressing Leu32Phe mouse Oct1; assay type: cell-based; settings: 50 μM fenoterol, 2 min, transient transfection
T3 construct: expressed in transfected cells
T3 sequence (O08966 1-556 L32F): T2 sequence (O08966 1-556) with L32F
Description: (§4) Human–mouse chimeric OCT1 constructs were generated using the overlap extension method ([50]) and have been characterized before ([34]). […] All constructs were validated by capillary sequencing of the complete open reading frame of OCT1 before transfection into HEK293 cells.
(§5) For transient transfection of OCT1 constructs into HEK293 cells for uptake experiments, 5 × 10^5 T-REx-293 cells (Life Technologies) were seeded per well in 12-well plates precoated with poly-D-lysine. […] At 48 h later, transfection efficacy was assessed microscopically by visualizing the GFP signal of the cotransfected GFP vector, and the cells were subsequently used for uptake experiments. […]
as §3, with “Cells were washed with 1 ml prewarmed (37 °C) HBSS+, and the uptake was initiated by adding 400 μl of prewarmed HBSS+ containing the substrate. Uptake was allowed for exactly 2 min and afterward stopped by adding 2 ml ice-cold HBSS+.” left out, “([51]). […]” for “([51]).”

[1] = target: T4, human OCT1 with mouse TMH1 (human–mouse chimeric OCT1) (Homo sapiens, UniProt O15245, A31S/C36Y/F32L/I24L/L28I); assay: Uptake by HEK293 cells transiently overexpressing chimeric human OCT1 carrying mouse TMH1; assay type: cell-based; settings: 50 μM fenoterol, 2 min, transient transfection
T4 construct: expressed in transfected cells
T4 sequence (O15245 1-554 I24L/L28I/A31S/F32L/C36Y): T1 sequence (O15245 1-554) with I24L, L28I, A31S, F32L, C36Y
Description: as §4, §5
as §3, with “Cells were washed with 1 ml prewarmed (37 °C) HBSS+, and the uptake was initiated by adding 400 μl of prewarmed HBSS+ containing the substrate. Uptake was allowed for exactly 2 min and afterward stopped by adding 2 ml ice-cold HBSS+.” left out, “([51]). […]” for “([51]).”

human OCT1 Phe32Leu = target: T5, human OCT1 Phe32Leu (Homo sapiens, UniProt O15245, F32L); assay: Uptake by HEK293 cells overexpressing Phe32Leu human OCT1; assay type: cell-based; settings: 50 μM fenoterol, 2 min, transient transfection
T5 construct: expressed in transfected cells
T5 sequence (O15245 1-554 F32L): T1 sequence (O15245 1-554) with F32L
Description: as §4, §5
as §3, with “Cells were washed with 1 ml prewarmed (37 °C) HBSS+, and the uptake was initiated by adding 400 μl of prewarmed HBSS+ containing the substrate. Uptake was allowed for exactly 2 min and afterward stopped by adding 2 ml ice-cold HBSS+.” left out, “([51]). […]” for “([51]).”

mouse Oct1 Tyr36Cys = mouse Oct1 Tyr36Cys (Mus musculus, UniProt O08966, Y36C); settings: 50 μM fenoterol, 2 min, transient transfection, versus mouse wildtype
Description: as §4, §5
as §3, with “Cells were washed with 1 ml prewarmed (37 °C) HBSS+, and the uptake was initiated by adding 400 μl of prewarmed HBSS+ containing the substrate. Uptake was allowed for exactly 2 min and afterward stopped by adding 2 ml ice-cold HBSS+.” left out, “([51]). […]” for “([51]).”

human OCT1 Cys36Tyr = target: T6, human OCT1 Cys36Tyr (Homo sapiens, UniProt O15245, C36Y); assay: Uptake by HEK293 cells overexpressing Cys36Tyr human OCT1; assay type: cell-based; settings: 2 min, transient transfection
T6 construct: expressed in transfected cells
T6 sequence (O15245 1-554 C36Y): T1 sequence (O15245 1-554) with C36Y
Description: as §4, §5
as §3, with “Cells were washed with 1 ml prewarmed (37 °C) HBSS+, and the uptake was initiated by adding 400 μl of prewarmed HBSS+ containing the substrate. Uptake was allowed for exactly 2 min and afterward stopped by adding 2 ml ice-cold HBSS+.” left out, “([51]). […]” for “([51]).”

Structure (SMILES) | vmax ± SD, hOCT1 (human OCT1) | vmax ± SD, mOct1 (mouse Oct1) | difference in uptake between human and mouse OCT1 at low concentration (human OCT1) | fenoterol uptake related to the uptake of the mouse ortholog (human OCT1) [%] | fold lower capacity (vmax) of human than of mouse OCT1 (human OCT1) [fold] | effect of Leu32Phe on fenoterol uptake (mouse Oct1 Leu32Phe) | increase of fenoterol uptake compared with the human wildtype [1] [%] | effect of Phe32Leu on fenoterol uptake (human OCT1 Phe32Leu) | reduction of fenoterol uptake by Tyr36Cys in mouse Oct1 (mouse Oct1 Tyr36Cys) [%] | fold increase of fenoterol uptake of human OCT1 by Cys36Tyr (human OCT1 Cys36Tyr; 50 μM fenoterol, versus human wildtype) [fold] | fenoterol uptake related to the uptake of the mouse ortholog (human OCT1 Cys36Tyr; Cys36Tyr human OCT1, 50 μM fenoterol) [%]
[H]/N=C(/N)N/C(=N/[H])NCCc1ccccc1 [Phenformin] | 1957 ± 418 pmol × min^−1 × mg protein^−1 | 1072 ± 182 pmol × min^−1 × mg protein^−1 |  |  |  |  |  |  |  |  | 
CC(Cc1ccc(O)cc1)NCC(O)c1cc(O)cc(O)c1 (stereo not shown) [Fenoterol] | 90.5 ± 19.3 pmol × min^−1 × mg protein^−1 | 780.8 ± 68.5 pmol × min^−1 × mg protein^−1 | did not see differences in uptake | 10.5 | 8.8 | did not affect | 25 | did not affect | 90 | 4.8 | 49.8

Substitutions are numbered along the chain they refer to.
